From ChEMBL document CHEMBL2407041, “Identification of potent Yes1 kinase inhibitors using a library screening approach” (Bioorg Med Chem Lett, 2013)

Amino acid sequences for entries named in this document (tags omitted).
UniProt P07947, whole entry: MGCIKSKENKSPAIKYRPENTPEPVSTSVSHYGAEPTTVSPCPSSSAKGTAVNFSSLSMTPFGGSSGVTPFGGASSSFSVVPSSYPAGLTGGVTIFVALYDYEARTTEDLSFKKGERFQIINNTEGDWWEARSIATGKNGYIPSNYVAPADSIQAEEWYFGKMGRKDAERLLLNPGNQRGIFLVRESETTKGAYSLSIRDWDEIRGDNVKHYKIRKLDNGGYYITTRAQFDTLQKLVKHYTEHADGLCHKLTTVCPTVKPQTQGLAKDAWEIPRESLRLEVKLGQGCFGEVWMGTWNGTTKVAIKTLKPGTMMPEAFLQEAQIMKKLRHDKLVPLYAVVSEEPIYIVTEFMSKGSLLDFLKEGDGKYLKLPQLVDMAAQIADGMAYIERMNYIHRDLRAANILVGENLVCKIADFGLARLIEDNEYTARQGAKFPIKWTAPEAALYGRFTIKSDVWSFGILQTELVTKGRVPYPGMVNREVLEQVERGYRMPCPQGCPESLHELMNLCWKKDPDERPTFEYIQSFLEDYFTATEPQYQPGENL

How the values were obtained:
[1] = biological target: T1, Tyrosine-protein kinase Yes (Homo sapiens, UniProt P07947); test: Inhibition of Yes1 (unknown origin) assessed as kinase-dependent enzymatic production of ADP from ATP using coupled luminescence-based reaction by ADP-Glo kinase assay
[2] = biological target: T1, Tyrosine-protein kinase Yes; test: Inhibition of Yes1 (unknown origin) by [gamma-33P]-ATP radiolabeled enzyme activity assay

- IC50 [1]: 17.5 nM
- IC50 [2]: 13.1 nM
SMILES: CCN1CCN(Cc2ccc(-c3cc4c(N[C@H](C)c5ccccc5)ncnc4[nH]3)cc2)CC1 [AEE-788]
